Target: thrombin (Homo sapiens (Human), UniProt P00734)
Assay: Thrombin enzymatic assay
Format: biochemical
Settings: read-out: Thrombin IC50

O=C(CN1C(=O)[C@@H](NC(=O)c2cc3ccccc3cn2)COc2ccccc21)N[C@@H](C[C@@H]1CCNC1=O)C(=O)COC(=O)c1c(Cl)cccc1Cl
IC50: > 32 µM
